This passage reports IC50 results from US12331044B2, “Inhibitors of histone deacetylase useful for the treatment or prevention of HIV infection” (Merck Sharp & Dohme LLC, priority 2018, dated 2025).

Amino acid sequences for entries named in this document (tags omitted). A change or cut given only in a name is not applied to a line headed by its entry.
UniProt Q92769, whole entry: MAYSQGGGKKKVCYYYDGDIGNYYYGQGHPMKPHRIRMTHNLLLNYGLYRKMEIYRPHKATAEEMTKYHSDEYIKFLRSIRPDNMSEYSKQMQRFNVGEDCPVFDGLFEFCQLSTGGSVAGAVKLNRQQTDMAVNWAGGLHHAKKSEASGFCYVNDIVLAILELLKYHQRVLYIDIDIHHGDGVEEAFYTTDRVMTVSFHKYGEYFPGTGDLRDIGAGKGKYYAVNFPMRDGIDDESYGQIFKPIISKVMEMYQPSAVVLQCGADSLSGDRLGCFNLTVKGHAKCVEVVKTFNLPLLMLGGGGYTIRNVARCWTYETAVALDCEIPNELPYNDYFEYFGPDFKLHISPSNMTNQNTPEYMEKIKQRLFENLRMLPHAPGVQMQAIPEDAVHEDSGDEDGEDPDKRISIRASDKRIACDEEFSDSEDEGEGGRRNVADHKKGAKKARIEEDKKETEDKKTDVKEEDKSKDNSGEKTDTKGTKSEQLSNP
UniProt Q9BY41: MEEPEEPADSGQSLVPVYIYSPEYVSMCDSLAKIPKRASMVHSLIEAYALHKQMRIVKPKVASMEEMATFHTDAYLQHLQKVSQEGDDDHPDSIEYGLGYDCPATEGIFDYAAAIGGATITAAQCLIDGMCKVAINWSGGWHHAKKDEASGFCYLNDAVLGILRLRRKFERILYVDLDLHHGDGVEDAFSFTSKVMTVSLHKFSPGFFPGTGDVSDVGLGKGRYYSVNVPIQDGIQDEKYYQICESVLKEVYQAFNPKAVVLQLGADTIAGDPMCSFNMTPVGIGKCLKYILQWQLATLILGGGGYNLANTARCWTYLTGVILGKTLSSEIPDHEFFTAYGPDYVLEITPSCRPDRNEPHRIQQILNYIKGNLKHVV
UniProt Q13547, whole entry: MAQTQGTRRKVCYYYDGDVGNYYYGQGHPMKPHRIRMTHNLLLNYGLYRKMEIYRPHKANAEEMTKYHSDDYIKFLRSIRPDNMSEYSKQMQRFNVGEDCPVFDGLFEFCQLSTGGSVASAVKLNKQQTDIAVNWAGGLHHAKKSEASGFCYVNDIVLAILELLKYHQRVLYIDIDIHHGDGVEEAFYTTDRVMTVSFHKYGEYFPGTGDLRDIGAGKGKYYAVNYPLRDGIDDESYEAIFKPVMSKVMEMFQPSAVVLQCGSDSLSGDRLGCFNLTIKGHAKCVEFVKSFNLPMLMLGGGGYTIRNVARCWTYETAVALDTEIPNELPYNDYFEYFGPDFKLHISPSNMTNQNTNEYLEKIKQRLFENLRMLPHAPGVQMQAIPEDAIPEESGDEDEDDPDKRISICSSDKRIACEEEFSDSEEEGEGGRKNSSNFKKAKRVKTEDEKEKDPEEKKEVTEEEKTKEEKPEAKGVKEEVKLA
UniProt Q9UBN7: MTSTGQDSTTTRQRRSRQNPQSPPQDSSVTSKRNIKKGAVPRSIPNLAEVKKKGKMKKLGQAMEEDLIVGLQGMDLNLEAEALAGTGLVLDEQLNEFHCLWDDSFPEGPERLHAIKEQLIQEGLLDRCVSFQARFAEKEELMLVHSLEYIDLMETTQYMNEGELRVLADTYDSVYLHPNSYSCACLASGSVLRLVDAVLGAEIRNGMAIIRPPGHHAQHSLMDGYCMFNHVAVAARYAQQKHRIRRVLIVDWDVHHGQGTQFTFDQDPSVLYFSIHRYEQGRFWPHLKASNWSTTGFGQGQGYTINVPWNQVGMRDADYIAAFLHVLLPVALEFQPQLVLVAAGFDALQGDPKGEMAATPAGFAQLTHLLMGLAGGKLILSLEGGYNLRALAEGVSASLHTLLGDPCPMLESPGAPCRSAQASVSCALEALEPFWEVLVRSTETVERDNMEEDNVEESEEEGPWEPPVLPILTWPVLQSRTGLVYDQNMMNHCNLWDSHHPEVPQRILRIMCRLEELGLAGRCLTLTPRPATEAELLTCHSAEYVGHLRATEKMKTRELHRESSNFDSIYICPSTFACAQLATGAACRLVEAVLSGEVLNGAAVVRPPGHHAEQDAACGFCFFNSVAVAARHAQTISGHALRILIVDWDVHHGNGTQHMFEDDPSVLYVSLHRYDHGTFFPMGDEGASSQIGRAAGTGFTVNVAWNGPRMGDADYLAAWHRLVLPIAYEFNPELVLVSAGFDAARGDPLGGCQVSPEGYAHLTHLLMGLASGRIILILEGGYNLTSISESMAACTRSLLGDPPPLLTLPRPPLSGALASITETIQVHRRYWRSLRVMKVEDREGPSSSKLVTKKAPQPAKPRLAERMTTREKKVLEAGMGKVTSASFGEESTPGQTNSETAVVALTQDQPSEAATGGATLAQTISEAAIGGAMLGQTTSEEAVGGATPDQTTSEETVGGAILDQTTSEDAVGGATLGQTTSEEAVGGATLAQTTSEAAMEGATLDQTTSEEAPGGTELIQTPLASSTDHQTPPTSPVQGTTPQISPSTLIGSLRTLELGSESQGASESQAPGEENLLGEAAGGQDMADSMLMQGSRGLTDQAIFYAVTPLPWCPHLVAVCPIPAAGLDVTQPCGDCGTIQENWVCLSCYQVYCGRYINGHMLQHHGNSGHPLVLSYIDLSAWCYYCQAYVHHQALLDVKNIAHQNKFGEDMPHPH

The structures appear in SMILES notation. Like-named read-outs stand apart in the source and are kept apart here. Where only a bound is given, the exact number is not on record here.

For orientation: IC50 means the concentration needed to halve the response being measured. Read a high IC50 as weaker potency.

One assay concerns the target human HDAC2 (Homo sapiens (Human), UniProt Q92769). As to the kind of experiment: HDAC2 inhibition assay (modified FLUOR DE LYS, 384-well). The format is biochemical.
The target in a further assay is human HDAC8 (Homo sapiens (Human), UniProt Q9BY41). In words: HDAC8 inhibition assay (modified FLUOR DE LYS, 384-well). It is filed as biochemical. To be noted: […] enzyme, 200 μM substrate BML-KI178, 3 h pre-incubation.
The target of another assay is human HDAC1 (Homo sapiens (Human), UniProt Q13547).
A further assay has as its target HDAC6 (Homo sapiens (Human), UniProt Q9UBN7).
[1] abbreviates: […] enzyme, 40 μM substrate BML-KI104, 3 h pre-incubation.

Regarding `NC(CCCCCC(=O)c1ccon1)c1cnn(-c2ccc(F)cc2)n1` (stereo not drawn) [Example 123, 7-amino-7-[2-(4-fluorophenyl)-2H-1,2,3-triazol-4-yl]-1-isoxazol-3-ylheptan-1-one], the IC50 against human HDAC2 (setting [1]) was found to be 81 nM; against human HDAC8, 440 nM; at human HDAC1, 25 nM.
On to `N[C@@H](CCCCCC(=O)c1cocn1)c1ncc(-c2ccccc2F)[nH]1` [Example 36, (S)-7-amino-7-(5-(2-fluorophenyl)-1H-imidazol-2-yl)-1-(oxazol-4-yl)heptan-1-one], for which the IC50 against human HDAC2 was determined as 740 nM; against human HDAC1 it was 170 nM.
As for `NC(CCCCCC(=O)c1ccon1)c1cnn(-c2ccc(F)cc2)c1` (stereo not drawn) [Example 121, 7-amino-7-[1-(4-fluorophenyl)-1H-pyrazol-4-yl]-1-isoxazol-3-ylheptan-1-one], the IC50 against human HDAC2 (setting [1]) is 61 nM; at human HDAC8, 470 nM.
Taken in the same sequence, the figures for `CN1CC(C(=O)N[C@@H](CCCCCC(=O)c2ncco2)c2nc(-c3ccc(F)cc3)c[nH]2)C1` [Example 1, (S)-N-(1-(4-(4-fluorophenyl)-1H-imidazol-2-yl)-7-(oxazol-2-yl)-7-oxoheptyl)-1-methylazetidine-3-carboxamide] were 7.1 nM and 100 nM.
As for `NC(CCCCCC(=O)c1ccon1)c1cnn(-c2ccc(F)cc2)n1` (stereo not drawn) [Example 124, 7-amino-7-[2-(4-fluorophenyl)-2H-1,2,3-triazol-4-yl]-1-isoxazol-3-ylheptan-1-one], the IC50 at human HDAC2 (setting [1]) turned out to be 1200 nM; on human HDAC1 it was 450 nM.
In the case of `Cc1cc(C(=O)CCCCC[C@H](NC(=O)C2CN(C)C2)c2nc(-c3ccccc3F)c[nH]2)no1` [Example 59], the IC50 against human HDAC2 (setting [1]) was 0.76 nM; against human HDAC8, 16 nM; on human HDAC1, 0.16 nM.
As for `N[C@@H](CCCCCC(=O)c1ccon1)c1cc(-c2ccccc2F)on1` [Example 125, (7S)-7-amino-7-[5-(2-fluorophenyl)isoxazol-3-yl]-1-isoxazol-3-ylheptan-1-one], the IC50 against HDAC6 is > 900 nM.
Take `CN1CC(C(=O)N[C@@H](CCCCCC(=O)c2ccon2)c2nnc(-c3ccccc3F)o2)C1` [Example 106, (S)-N-(1-(5-(2-fluorophenyl)-1,3,4-oxadiazol-2-yl)-7-(isoxazol-3-yl)-7-oxoheptyl)-1-methylazetidine-3-carboxamide]: the IC50 against human HDAC2 (setting [1]) is 101 nM; at human HDAC8, > 900 nM; at human HDAC1, 51 nM; on HDAC6, > 900 nM.
For the compound `CN1CC(C(=O)NC(CCCCCC(=O)c2ccon2)c2ncc(-c3ccccc3F)o2)C1` (stereo not drawn) [Example 107, N-(1-(5-(2-fluorophenyl)oxazol-2-yl)-7-(isoxazol-3-yl)-7-oxoheptyl)-1-methylazetidine-3-carboxamide], the IC50 on human HDAC2 (setting [1]) was 0.82 nM; at human HDAC8, 32 nM; at human HDAC1, 0.2 nM; at HDAC6, > 900 nM.
`NC(CCCCCC(=O)c1ccon1)c1cnn(-c2ccc(F)cc2)c1` (stereo not drawn) [Example 122, 7-amino-7-[1-(4-fluorophenyl)-1H-pyrazol-4-yl]-1-isoxazol-3-ylheptan-1-one] came in with an IC50 at human HDAC2 (setting [1]) of 1600 nM.
